# Results reported in PubChem BioAssay AID1259374 (The Scripps Research Institute Molecular Screening Center, 2018).
# Protein sequences, listed by entry. Tags and fused reporters are not part of them.
# UniProt O75030, whole entry: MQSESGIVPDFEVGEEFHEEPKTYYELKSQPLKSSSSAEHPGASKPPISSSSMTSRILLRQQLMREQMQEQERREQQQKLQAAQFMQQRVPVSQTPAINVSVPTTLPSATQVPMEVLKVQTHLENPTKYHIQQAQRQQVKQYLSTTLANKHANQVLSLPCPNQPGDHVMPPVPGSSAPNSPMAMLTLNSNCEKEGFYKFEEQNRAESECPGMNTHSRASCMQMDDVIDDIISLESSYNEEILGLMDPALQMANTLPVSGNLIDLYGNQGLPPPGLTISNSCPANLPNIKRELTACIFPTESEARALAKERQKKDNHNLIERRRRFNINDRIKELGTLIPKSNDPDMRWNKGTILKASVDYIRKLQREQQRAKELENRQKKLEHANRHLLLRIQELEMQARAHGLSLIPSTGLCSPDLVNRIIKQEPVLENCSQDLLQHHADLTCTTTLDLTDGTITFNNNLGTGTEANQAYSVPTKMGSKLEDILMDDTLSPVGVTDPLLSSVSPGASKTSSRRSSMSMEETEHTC
# The entries are a selection whose mix differs from that of the whole data set. Some salts or complexes appear as unconnected parts, following the source record. Activity calls are given as the source filed them. Cut-off read from the data, not from the text of the source: active = inhibition above about 50%; inactive = the rest.
# Molecular target: Microphthalmia-associated transcription factor (Homo sapiens) (UniProt O75030)
# Assay: MITF inhibitors, primary screen, biochemical, AlphaScreen, human (AID 1259374);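 note: 0% = vehicle wells with protein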
# Details: AlphaScreen MITF homodimerization, bead proximity signal; at 2.6 µM; hits give high values
row,SMILES,inhibition
1,Cc1c(NP(C)(=O)Oc2ccc(C(C)C)cc2)c(=O)n(-c2ccccc2)n1C (stereo not given),inactive: 20.2%
2,CCOP(C)(=S)SCN(CC(=O)O)C(=O)OCc1ccccc1 (stereo not given),inactive: -2.21%
3,O=[N+]([O-])c1cc([N+](=O)[O-])c(Nc2ccccn2)c([N+](=O)[O-])c1,inactive: 19.2%
4,Nc1c([N+](=O)[O-])cc([N+](=O)[O-])c(Nc2ccccc2C(=O)O)c1[N+](=O)[O-],inactive: 1.87%
5,COc1ccc(OP(C)(=O)Nc2ccccc2Br)cc1 (stereo not given),inactive: 7.31%
6,COc1ccccc1OP(C)(=O)Nc1ccc(C)c(C)c1 (stereo not given),inactive: -4.75%
7,C/C1=C2N=C(/C=C3N=C(/C(C)=C4\[N-][C@@](C)([C@@H]5N=C1[C@](C)(CCC(=O)NC[C@@H](C)OP(=O)(O)O[C@H]1[C@@H](O)[C@@H](n6cnc7cc(C)c(C)cc76)O[C@@H]1CO)[C@H]5CC(N)=O)[C@@](C)(CC(N)=O)[C@@H]4CCC(N)=O)[C@@](C)(CC(N)=O)[C@@H]\3CCC(N)=O)C(C)(C)[C@@H]/2CCC(N)=O.[C-]#N.[Co+3],inactive: 5.28%
8,CCCCOc1ccc(NP(C)(=O)Oc2ccccc2OC)cc1 (stereo not given),inactive: -1.36%
9,CP(=O)(Nc1ccc(Cl)cc1Cl)Oc1ccccc1 (stereo not given),inactive: 4.08%
10,CP(=O)(OCCOc1ccccc1)OCCOc1ccccc1,inactive: 19%
11,O=[N+]([O-])c1cc([N+](=O)[O-])c(N2CCCCCC2)c([N+](=O)[O-])c1,inactive: 38%
12,COCC(CN(C)[N+](=O)[O-])O[N+](=O)[O-] (stereo not given),inactive: -4.25%
13,Cc1cccc(C)c1OP(C)(=O)Nc1ccccc1 (stereo not given),inactive: 0.07%
14,O=[N+]([O-])c1cc([N+](=O)[O-])c(Nc2ccccc2)c([N+](=O)[O-])c1,inactive: -2.81%
15,CP(=O)(OC12CC3CC(CC(C3)C1)C2)OC12CC3CC(CC(C3)C1)C2,inactive: 7.72%
16,CCOC(=O)c1ccc(NP(C)(=O)Oc2ccc(Cl)cc2)cc1 (stereo not given),inactive: -6.93%
17,CP(=O)(Nc1cccc(Cl)c1)Nc1cccc(Cl)c1,inactive: 6.61%
18,NNc1c([N+](=O)[O-])cc([N+](=O)[O-])cc1[N+](=O)[O-],inactive: 9.06%
19,Nc1nonc1-[n+]1nc2nonc2[n-]1,inactive: 1.08%
20,CC(C)c1ccc(OP(C)(=O)O)cc1,inactive: 15.6%

row,SMILES,inhibition
1,CN(c1nc2nonc2nc1N(C)[N+](=O)[O-])[N+](=O)[O-],inactive: 12.7%
2,C/C1=C2N=C(/C=C3N=C(/C(C)=C4\[N-]C(C(CC(N)=O)C4(C)CCC(=O)NCC(C)OP(=O)([O-])OC4C(CO)OC(n5cnc6cc(C)c(C)cc65)C4O)C4(C)N=C1C(CCC(N)=O)C4(C)CC(N)=O)C(CCC(N)=O)C\3(C)C)C(CCC(N)=O)C/2(C)CC(N)=O.C/C1=C2N=C(/C=C3N=C(/C(C)=C4\[N-]C(C(CC(N)=O)C4(C)CCC(=O)NCC(C)OP(=O)([O-])OC4C(CO)OC(n5cnc6cc(C)c(C)cc65)C4O)C4(C)N=C1C(CCC(N)=O)C4(C)CC(N)=O)C(CCC(N)=O)C\3(C)C)C(CCC(N)=O)C/2(C)CC(N)=O.[C-]#N.[Co+3] (stereo not given),inactive: -50.6%
3,N1=Nc2nonc2N=Nc2nonc21,inactive: 9.49%
4,O=[N+]([O-])c1cc([N+](=O)[O-])c(N2CCOCC2)c([N+](=O)[O-])c1,inactive: 13.1%
5,CP(=O)(Oc1ccccc1)N1CCOC1=O (stereo not given),inactive: 19%
6,OCCSCCO,inactive: -19.3%
7,COc1ccccc1OP(C)(=O)Nc1c(C)n(C)n(-c2ccccc2)c1=O (stereo not given),inactive: 15.5%
8,O=[N+]([O-])c1cc([N+](=O)[O-])c(NCc2ccccc2)c([N+](=O)[O-])c1,inactive: 13.5%
9,COc1ccc(OP(C)(=O)Nc2ccc(Br)cc2)cc1 (stereo not given),inactive: 10.1%
10,CCc1ccc(OP(C)(=O)Nc2ccc(I)cc2)cc1 (stereo not given),inactive: 16.4%
11,CN1CCCC1=C1c2cc([N+](=O)[O-])cc([N+](=O)[O-])c2-c2c1cc([N+](=O)[O-])cc2[N+](=O)[O-],inactive: -5.31%
12,O=C(Nc1ccccc1O)c1c([N+](=O)[O-])cc([N+](=O)[O-])cc1[N+](=O)[O-],inactive: 4.5%
13,CP(=O)(Nc1ccc(F)c(Cl)c1)Oc1ccccc1 (stereo not given),inactive: -17.8%
14,O=[N+]([O-])c1cc([N+](=O)[O-])c(Nc2ccccc2CO)c([N+](=O)[O-])c1,inactive: 10.8%
15,CN(C)C(=O)c1c([N+](=O)[O-])cc([N+](=O)[O-])cc1[N+](=O)[O-],inactive: 3.47%
16,CN(C)/C=C(\C=O)c1c([N+](=O)[O-])cc([N+](=O)[O-])cc1[N+](=O)[O-],inactive: 20.1%
17,CP(=O)(Nc1ccc(Cl)cc1)Oc1ccc(F)cc1 (stereo not given),inactive: -0.33%
18,COc1cccc(C(OP(C)(=O)O)C(F)(F)F)c1 (stereo not given),inactive: -4.87%
19,Cc1c([N+](=O)[O-])cc([N+](=O)[O-])c(Nc2ccc(C(=O)O)cc2)c1[N+](=O)[O-],inactive: -13.5%
20,[O-][n+]1onc2c1c1no[n+]([O-])c1c1no[n+]([O-])c21,inactive: 4.54%
